## Yeast mating assay 1: variants of the scFv Ab-14

From the AlphaSeq antibody data of Engelhart et al. 2022 (doi:10.1038/s41597-022-01779-4), copy in the FLAb collection.

Antigen: PDVDLGDISGINAS, a 14-residue peptide of the SARS-CoV-2 spike HR2 region.

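The parent was found by panning a naive human phage display library on the peptide. In library AAYL49, one, two or three CDR residues were substituted; doubles and triples were drawn at random. In AlphaSeq, yeast of one mating type display the scFv and yeast of the other type display the target. After mating in shaken culture at 30 °C for 16 h, diploids were selected and their barcode pairs sequenced. A regression on co-assayed BCL2-family reference pairs converts the normalised counts of each replicate to an apparent Kd. Each pool was mated in three replicate cultures.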

Each scFv is VH, a 15-residue (Gly4Ser)3 linker, VL, as in the parent Ab-14, and differs from it in the CDRs of the heavy chain only.
VH: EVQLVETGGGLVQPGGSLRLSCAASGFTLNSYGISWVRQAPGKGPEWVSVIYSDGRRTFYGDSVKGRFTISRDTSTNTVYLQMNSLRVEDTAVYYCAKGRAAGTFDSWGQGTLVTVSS
VL: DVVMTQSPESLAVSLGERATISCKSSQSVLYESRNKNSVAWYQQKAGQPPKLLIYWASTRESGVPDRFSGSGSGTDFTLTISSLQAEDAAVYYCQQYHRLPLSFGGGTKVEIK

Variants are written as CDR1, CDR2 and CDR3 of the heavy chain (limits as in the source). Parent: GFTLNSYGIS, VIYSDGRRTFYGDSVK, GRAAGTFDS. Every variant below is changed at Y60 of the VH (sequential numbering). The Kd shown is the geometric mean over detected replicates; a lower Kd is a better binder. "nd" marks a missing value. The strain was present, yet no cells mated with the target were sequenced in any replicate, which points to weak or no binding.

Variant GFTLNSYRKS / VIYSDGRRTFSGDSVK / GRAAGTFDS gave nd (0 of 3 replicates).
Variant GFTLNSYGIS / VIYSDGRRYFVGDSVK / GRAAGTFDS gave 1.3 µM (3 of 3 replicates).
Variant GFTLNSVGIS / VIYSDGRRTFQGDSGK / GRAAGTFDS gave nd (0 of 3 replicates).
Variant GFTLNSYGIS / VIYSDGRRTFRGDSKK / GRSAGTFDS gave 3.2 µM (1 of 3 replicates).
Variant GFTLNSYGIS / CIYSDGRRTFQGDSVK / GRAAGTFDP gave nd (0 of 3 replicates).
Variant GFTLNSYGIS / AIYSDGRRTFVGDSVK / YRAAGTFDS gave 1.1 µM (2 of 3 replicates).
Variant GFTLNSYGIS / VIYSDGRRTFERDSDK / GRAAGTFDS gave 740 nM (1 of 3 replicates).
Variant GFTVNSTGIS / VIYSDGRRTFAGDSVK / GRAAGTFDS gave nd (0 of 3 replicates).
Variant GFTLNSYGIS / VIYSDGPRTFNGDSVK / GKAAGTFDS gave nd (0 of 3 replicates).
Variant GFTLNSYPIS / VIYSKGRRTFDGDSVK / GRAAGTFDS gave nd (0 of 3 replicates).
Variant GFTLNSYGIS / VIYSDGRRTFRGDSRK / GRAAGTFDF gave 9.4 µM (1 of 3 replicates).
Variant GFTLNSYGIS / VNYSDGRRIFAGDSVK / GRAAGTFDS gave nd (0 of 3 replicates).
Variant GFTLNSYGIS / VIYSDGRRTFWGDNVK / GRAAGVFDS gave nd (0 of 3 replicates).
Variant GFTLNSYGIS / VIYSDGRRTFAPDSVK / GRAAGDFDS gave nd (0 of 3 replicates).
Variant GFTLNSYGIS / VITSDGRRTFGGDSVK / GRAAGTHDS gave nd (0 of 3 replicates).
Variant GFTLNSYGIS / VIYSDGRRTEEGDSVK / GRAAGTFES gave nd (0 of 3 replicates).
Variant GFTLNSYGIS / VIYSDGRRTFGGDSVK / PRAAGTFDS gave nd (0 of 3 replicates).
Variant GFTLNSYGIS / VIYMDGRRTFGGDSVK / GRAAGKFDS gave nd (0 of 3 replicates).
Variant GFTLNSYGIS / VIYSDGRRTFPGDSVK / GRAAYTFDQ gave nd (0 of 3 replicates).
Variant GFTLNMYGIS / VIYSDYRRTFGGDSVK / GRAAGTFDS gave 6.8 µM (1 of 3 replicates).
Variant GFTLNSYGIS / VQYSDGRRTFLGDSVK / GVAAGTFDS gave 25 µM (2 of 3 replicates).
Variant GFTLNSYGIS / VIYSDGRRAFCGDSVK / GRAAGTFDY gave nd (0 of 3 replicates).
Variant GFTLNSHGIS / VIYSDGRRTGWGDSVK / GRAAGTFDS gave 360 nM (1 of 3 replicates).
Variant GFTLNSGGIS / VIYSDDRRTFEGDSVK / GRAAGTFDS gave 64 µM (1 of 3 replicates).
Variant GFTLNSYGID / VIYSDGRRTFRGDSKK / GRAAGTFDS gave nd (0 of 3 replicates).
Variant VFTLNSYGIS / VIYSDGRVTFAGDSVK / GRAAGTFDS gave 3.7 µM (1 of 3 replicates).
Variant GFTWNSYGIS / VIYSDGRRTFRGDFVK / GRAAGTFDS gave nd (0 of 3 replicates).
Variant GFTLPSYGIP / VIYSDGRRTFQGDSVK / GRAAGTFDS gave nd (0 of 3 replicates).
Variant GFTLNSYGIS / VIYSFGRKTFAGDSVK / GRAAGTFDS gave 230 µM (1 of 3 replicates).
Variant GFTLNSYGIS / VIYSTGRRTFLGDSHK / GRAAGTFDS gave nd (0 of 3 replicates).
Variant GFTLNSYGHS / VIYSDERRTFWGDSVK / GRAAGTFDS gave nd (0 of 3 replicates).
Variant GFTLNSYGIS / SIYSDGRRTRTGDSVK / GRAAGTFDS gave 1.7 mM (1 of 3 replicates).
Variant GFTLNSAGIS / VIYSDGRRTFGGDAVK / GRAAGTFDS gave 150 µM (3 of 3 replicates).
Variant GFTQNSYGIS / VIYSDGRRTFLGDSVK / GRAAGTADS gave nd (0 of 3 replicates).
Variant GFTLNSYGIS / VIYSDGRRTFDGDSVK / GRAAGTFPF gave 5.8 µM (2 of 3 replicates).
Variant GFILNIYGIS / VIYSDGRRTFDGDSVK / GRAAGTFDS gave nd (0 of 3 replicates).

Empty control strains, which show no peptide, gave a signal in 15% of pairings with library AAYL49; the median was 11 µM and 95% of these signals were weaker than 680 nM. No background was subtracted. In this assay the parent's reference entry averaged 4.4 nM; its copy inside this library read 13 µM (one replicate of three).